The record followed here is patent publication US20260265717A1.

This test deals with MG64-1 Cas12k expressed with an N-terminal Twin Strep tag and an HRV3C protease site and a C-terminal 2xNLS tag. Briefly: mass spectrometry of tryptic peptides from SEC-eluted Cas12k Strep pulldown complex; emPAI is a relative measure of abundance.

For the substance “small prokaryotic ribosomal protein subunit S15 (from UniProt P0ADZ4 2-89)”, the emPAI is 0.46.
